Results: paper PMC7143835, “Anti-Hyperglycemic Effects of Green Crab Hydrolysates Derived by Commercially Available Enzymes” (Foods, 2020)

Sequences of proteins named here, by UniProt entry; tags and fusion partners are left off. A change or cut given only in a name is not applied to a line headed by its entry.
UniProt P22411: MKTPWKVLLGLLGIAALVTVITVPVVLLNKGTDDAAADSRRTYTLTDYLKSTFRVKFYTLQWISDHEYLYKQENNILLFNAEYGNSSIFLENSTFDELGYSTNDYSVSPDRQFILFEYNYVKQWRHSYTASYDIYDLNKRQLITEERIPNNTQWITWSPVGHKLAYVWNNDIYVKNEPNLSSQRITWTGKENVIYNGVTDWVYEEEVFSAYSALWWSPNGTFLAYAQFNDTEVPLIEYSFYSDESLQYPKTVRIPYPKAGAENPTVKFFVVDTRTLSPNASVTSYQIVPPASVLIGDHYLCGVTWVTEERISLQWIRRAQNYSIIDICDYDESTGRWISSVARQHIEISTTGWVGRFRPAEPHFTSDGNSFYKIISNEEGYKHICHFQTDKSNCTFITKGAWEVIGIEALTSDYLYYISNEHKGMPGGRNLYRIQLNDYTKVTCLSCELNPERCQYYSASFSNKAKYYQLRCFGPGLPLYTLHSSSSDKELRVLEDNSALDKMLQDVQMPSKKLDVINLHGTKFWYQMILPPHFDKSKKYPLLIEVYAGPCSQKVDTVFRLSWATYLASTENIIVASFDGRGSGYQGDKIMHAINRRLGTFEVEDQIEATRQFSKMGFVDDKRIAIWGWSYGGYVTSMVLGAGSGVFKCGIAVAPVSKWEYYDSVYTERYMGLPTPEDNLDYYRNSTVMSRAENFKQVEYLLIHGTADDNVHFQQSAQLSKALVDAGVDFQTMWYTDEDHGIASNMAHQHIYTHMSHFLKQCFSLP

Molecular target: T1, porcine kidney dipeptidyl peptidase-IV (DPP-IV) (Sus scrofa, UniProt P22411)
T1 construct: gene DPP4
Assay: biochemical

IC50: 107 nM
SMILES: N[C@@H](CC(=O)N1CCn2c(nnc2C(F)(F)F)C1)Cc1cc(F)c(F)cc1F [sitagliptin]
